For one assay, the target named is TBK1 (Homo sapiens (Human), UniProt Q9UHD2). The assay is described as follows: TBK1 TR-FRET enzymatic assay. The conditions noted are these: read-out: TBK1 IC50.
For another assay, the target named is IKKε (Homo sapiens (Human), UniProt Q14164). The assay is described as follows: IKKε TR-FRET enzymatic assay. The class given is biochemical. As to conditions: read-out: IKKe IC50. For orientation: In TR-FRET formats the signal depends on donor and acceptor labels being close together.
A further assay has as its target hJAK2 (Homo sapiens (Human), UniProt O60674). The assay is described as follows: hJAK2 LANCE TR-FRET enzymatic assay. The class given is biochemical. As to conditions: read-out: JAK2 IC50.

The chains behind the UniProt entries cited, without tags or fusion partners. Where a name states a change or a piece, a line headed by the entry shows the natural chain unless it says otherwise.
UniProt Q9UHD2: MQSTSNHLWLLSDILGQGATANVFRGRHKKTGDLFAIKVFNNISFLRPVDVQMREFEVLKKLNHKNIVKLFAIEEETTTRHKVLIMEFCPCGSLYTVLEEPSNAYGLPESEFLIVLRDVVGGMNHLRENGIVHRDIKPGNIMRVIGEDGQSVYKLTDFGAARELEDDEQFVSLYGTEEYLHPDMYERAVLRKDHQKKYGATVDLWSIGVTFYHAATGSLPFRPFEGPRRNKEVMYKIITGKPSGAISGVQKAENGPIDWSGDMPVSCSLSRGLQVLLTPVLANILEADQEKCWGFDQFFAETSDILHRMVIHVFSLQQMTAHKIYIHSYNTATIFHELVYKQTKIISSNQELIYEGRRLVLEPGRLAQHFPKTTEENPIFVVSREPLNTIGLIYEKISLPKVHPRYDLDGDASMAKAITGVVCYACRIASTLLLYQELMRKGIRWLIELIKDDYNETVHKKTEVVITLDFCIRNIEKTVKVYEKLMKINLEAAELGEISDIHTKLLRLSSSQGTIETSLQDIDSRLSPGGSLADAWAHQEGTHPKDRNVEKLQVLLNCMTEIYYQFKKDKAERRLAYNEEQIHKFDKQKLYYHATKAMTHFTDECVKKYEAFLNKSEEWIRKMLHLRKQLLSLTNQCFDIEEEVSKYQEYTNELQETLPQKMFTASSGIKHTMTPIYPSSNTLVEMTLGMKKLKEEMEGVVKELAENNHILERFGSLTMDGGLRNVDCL
UniProt Q14164: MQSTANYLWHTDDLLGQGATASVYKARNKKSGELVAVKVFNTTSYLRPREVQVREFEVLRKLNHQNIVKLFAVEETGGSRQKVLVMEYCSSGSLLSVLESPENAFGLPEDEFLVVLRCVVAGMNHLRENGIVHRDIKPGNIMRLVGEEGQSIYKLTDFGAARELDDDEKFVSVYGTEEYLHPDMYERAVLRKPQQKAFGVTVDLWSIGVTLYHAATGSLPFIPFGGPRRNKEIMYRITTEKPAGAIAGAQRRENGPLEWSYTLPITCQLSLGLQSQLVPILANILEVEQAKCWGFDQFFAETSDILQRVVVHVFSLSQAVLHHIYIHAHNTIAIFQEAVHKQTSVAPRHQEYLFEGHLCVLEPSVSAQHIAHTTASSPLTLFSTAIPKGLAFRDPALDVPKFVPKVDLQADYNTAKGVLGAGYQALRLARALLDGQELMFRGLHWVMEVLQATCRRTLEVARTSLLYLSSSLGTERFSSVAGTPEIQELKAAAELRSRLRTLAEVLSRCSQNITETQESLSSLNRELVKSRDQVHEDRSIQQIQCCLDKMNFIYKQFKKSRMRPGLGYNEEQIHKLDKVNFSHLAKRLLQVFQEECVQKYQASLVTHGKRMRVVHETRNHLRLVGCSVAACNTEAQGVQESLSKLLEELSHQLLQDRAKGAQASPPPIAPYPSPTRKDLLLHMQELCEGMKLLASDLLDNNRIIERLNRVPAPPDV
UniProt O60674: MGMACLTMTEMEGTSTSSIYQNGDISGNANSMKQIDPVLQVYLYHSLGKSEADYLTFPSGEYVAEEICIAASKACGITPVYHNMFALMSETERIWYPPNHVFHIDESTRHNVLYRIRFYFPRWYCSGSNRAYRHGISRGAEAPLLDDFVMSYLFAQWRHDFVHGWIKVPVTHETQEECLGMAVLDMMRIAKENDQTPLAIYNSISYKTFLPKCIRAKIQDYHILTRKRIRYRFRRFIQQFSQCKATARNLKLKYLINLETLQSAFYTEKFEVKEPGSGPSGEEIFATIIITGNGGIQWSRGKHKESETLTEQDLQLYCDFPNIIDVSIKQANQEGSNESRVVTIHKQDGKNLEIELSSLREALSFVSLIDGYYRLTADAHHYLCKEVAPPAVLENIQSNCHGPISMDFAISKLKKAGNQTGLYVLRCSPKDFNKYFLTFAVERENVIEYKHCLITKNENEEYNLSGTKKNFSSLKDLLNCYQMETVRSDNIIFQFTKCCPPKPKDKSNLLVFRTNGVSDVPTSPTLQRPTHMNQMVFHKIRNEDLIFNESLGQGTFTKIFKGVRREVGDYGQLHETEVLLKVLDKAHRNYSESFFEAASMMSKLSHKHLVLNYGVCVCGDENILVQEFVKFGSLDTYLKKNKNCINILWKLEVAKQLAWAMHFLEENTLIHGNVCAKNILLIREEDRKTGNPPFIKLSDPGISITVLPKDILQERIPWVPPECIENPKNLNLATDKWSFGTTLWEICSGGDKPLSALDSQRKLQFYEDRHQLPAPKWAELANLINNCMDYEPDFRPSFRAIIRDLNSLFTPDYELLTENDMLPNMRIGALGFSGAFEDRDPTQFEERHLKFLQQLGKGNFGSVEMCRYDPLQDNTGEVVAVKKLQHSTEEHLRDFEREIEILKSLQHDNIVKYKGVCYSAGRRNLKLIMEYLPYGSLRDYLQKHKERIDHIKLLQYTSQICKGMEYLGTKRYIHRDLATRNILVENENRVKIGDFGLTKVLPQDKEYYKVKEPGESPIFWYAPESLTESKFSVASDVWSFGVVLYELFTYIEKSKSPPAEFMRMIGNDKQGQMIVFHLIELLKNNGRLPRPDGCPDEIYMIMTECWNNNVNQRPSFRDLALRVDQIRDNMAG

Our source for the IC50 values is patent publication US10253019B2, “Tank-binding kinase inhibitor compounds” (Gilead Sciences, Inc., priority 2014, dated 2019).

For orientation: IC50 means the concentration needed to halve the response being measured. “2-(((3R,4S)-3-fluoro-1-((S)-pyrrolidine-2-carbonyl)piperidin-4-yl)oxy)-5-(4-((4-(4-(oxetan-3-yl)piperazin-1-yl)phenyl)amino)-1,3,5-triazin-2-yl)benzonitrile [Example 133]”: at TBK1, the IC50 came out at 483 nM.
Consider “2-(((3R,4S)-4-fluoro-1-(2-hydroxyacetyl)pyrrolidin-3-yl)oxy)-5-(4-((4-(4-(oxetan-3-yl)piperazin-1-yl)phenyl)amino)-1,3,5-triazin-2-yl)benzonitrile [Example 101]”, for which the IC50 on IKKε was determined as 26 nM; on hJAK2, 638 nM.
